Reference: patent US4935404A

By UniProt entry, the sequences of proteins in these tests, tags left out. Residues count along the entry.
UniProt P03956, 100-469 limits assumed: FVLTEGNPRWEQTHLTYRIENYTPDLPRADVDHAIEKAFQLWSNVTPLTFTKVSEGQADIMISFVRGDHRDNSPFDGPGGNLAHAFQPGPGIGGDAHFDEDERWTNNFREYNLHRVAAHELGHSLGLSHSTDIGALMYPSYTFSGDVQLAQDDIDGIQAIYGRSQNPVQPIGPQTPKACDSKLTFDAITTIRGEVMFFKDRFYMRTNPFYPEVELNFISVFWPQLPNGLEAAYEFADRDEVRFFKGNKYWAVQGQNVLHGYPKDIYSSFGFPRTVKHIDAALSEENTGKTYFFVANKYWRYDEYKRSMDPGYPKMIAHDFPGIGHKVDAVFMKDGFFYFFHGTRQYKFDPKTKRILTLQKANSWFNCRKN
UniProt P13943, 99-468 limits assumed: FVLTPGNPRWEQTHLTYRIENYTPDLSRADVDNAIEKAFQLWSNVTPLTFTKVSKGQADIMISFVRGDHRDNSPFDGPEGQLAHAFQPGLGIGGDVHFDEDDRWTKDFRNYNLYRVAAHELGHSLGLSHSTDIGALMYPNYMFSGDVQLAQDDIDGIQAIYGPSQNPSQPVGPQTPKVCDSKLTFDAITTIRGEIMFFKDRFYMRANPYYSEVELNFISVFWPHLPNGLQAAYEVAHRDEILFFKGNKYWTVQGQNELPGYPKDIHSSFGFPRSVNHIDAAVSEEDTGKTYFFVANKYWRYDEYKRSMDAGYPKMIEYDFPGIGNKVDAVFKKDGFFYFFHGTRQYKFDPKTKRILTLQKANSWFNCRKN

Key:
[1] = target: human collagenase purified from culture supernatants from the human lung fibroblast cell line, WI-38 (Homo sapiens, UniProt P03956); assay: Collagenase inhibitor assay, human lung fibroblast collagenase; settings: read-out: Inhibition of human lung fibroblast collagenase IC50; collagenase from WI-38 culture supernatants; 14C-acetylated rat skin Type I collagen substrate
Procedure: (§1) The test is performed essentially as in Cawston and Barrett Anal. Biochem. 99, 340-345 (1979). Compounds for testing are dissolved in methanol and added to purified rabbit bone collagenase or human collagenase purified from culture supernatants from the human lung fibroblast cell line, WI-38, diluted in a suitable aqueous buffer. After a 5 min pre-incubation at 37° C., the assay tubes are cooled to 4° C. and ^14 C-acetylated rat skin Type I collagen is added. The assay tubes are incubated at 37° C. overnight. The ^14 C-collagen forms insoluble fibrils which are the substrate for the enzyme.
(§2) To terminate the assay, the assay tubes are spun at 12000 rpm for 25 min. Undigested ^14 C-collagen remains as insoluble fibrils and is pelleted, while digested ^14 C-collagen remains as soluble peptides in the supernatant. A sample of the supernatant is taken for liquid scintillation counting.
(§3) The activity of collagenase inhibitors (IC50 : 50% inhibitory concentration) is expressed as the concentration of compound that inhibits a known (standard) concentration of enzyme by 50%, or as the % inhibition of the collagen degradation caused by the known (standard) concentration of enzyme, at a stated concentration of the compound.

[2] = target: purified rabbit bone collagenase (Oryctolagus cuniculus, UniProt P13943); assay: Collagenase inhibitor assay, rabbit bone collagenase
Procedure: as §1, §2, §3

Structure (SMILES) | IC50 [1] [µM] | IC50 ([2]; read-out: Inhibition of rabbit bone collagenase IC50 (same expt), isomers A, B and A/B compared in the same expt) [µM] | IC50 ([2]; read-out: Inhibition of rabbit bone collagenase IC50, 14C-acetylated rat skin Type I collagen substrate, 37° C. overnight) [µM] | IC50 ([2]; read-out: Inhibition of rabbit bone collagenase IC50, 14C-acetylated rat skin Type I collagen substrate, 37° C. overnight, tested form: disodium salt) [µM]
CNC(=O)[C@H](Cc1ccc(OC)cc1)NC(=O)C(CC(C)C)NC(C)P(=O)(O)O (single isomer, unassigned) [1 A/B] | 0.51 | 1 | 0.275 to 1.9 | 
CNC(=O)[C@H](Cc1ccc(OC)cc1)NC(=O)C(CC(C)C)NCP(=O)(O)O (some centres unmarked) |  |  |  | 27
CCC(NC(CC(C)C)C(=O)N[C@@H](Cc1ccc(OC)cc1)C(=O)NC)P(=O)(O)O (single isomer, unassigned) [3 A/B] | 0.33 |  |  | 

Where two headings read alike, the source gives them in different places.
